Our source for the Activity values is ChEMBL document CHEMBL3286325, “Synthesis and evaluation of three structurally related ¹⁸F-labeled orvinols of different intrinsic activities: 6-O-[¹⁸F]fluoroethyl-diprenorphine ([¹⁸F]FDPN), 6-O-[¹⁸F]fluoroethyl-buprenorphine ([¹⁸F]FBPN), and 6-O-[¹⁸F]fluoroethyl-phenethyl-orvinol ([¹⁸F]FPEO)” (2014).

By UniProt entry, the sequences of proteins in these tests, tags left out.
UniProt P35372, whole entry: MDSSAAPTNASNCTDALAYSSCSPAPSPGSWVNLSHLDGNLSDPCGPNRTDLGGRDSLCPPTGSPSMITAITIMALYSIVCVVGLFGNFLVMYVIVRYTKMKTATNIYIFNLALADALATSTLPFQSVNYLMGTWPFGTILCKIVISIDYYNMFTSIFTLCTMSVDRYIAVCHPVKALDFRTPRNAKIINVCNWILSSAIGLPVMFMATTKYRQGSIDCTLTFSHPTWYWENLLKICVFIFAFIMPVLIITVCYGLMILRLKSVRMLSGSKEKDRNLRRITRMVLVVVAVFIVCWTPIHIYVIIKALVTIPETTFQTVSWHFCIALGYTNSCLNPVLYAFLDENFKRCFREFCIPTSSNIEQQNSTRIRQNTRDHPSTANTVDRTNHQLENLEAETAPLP
UniProt P41143, whole entry: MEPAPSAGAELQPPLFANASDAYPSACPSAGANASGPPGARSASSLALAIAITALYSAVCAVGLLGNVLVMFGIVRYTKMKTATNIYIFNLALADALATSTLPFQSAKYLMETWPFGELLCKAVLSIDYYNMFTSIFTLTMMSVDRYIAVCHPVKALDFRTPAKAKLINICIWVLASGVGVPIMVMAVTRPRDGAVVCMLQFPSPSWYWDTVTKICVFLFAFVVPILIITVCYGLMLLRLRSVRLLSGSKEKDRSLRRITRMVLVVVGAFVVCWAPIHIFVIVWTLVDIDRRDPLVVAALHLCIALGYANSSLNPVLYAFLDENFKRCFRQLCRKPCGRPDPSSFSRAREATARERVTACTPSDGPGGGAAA
UniProt P41145, whole entry: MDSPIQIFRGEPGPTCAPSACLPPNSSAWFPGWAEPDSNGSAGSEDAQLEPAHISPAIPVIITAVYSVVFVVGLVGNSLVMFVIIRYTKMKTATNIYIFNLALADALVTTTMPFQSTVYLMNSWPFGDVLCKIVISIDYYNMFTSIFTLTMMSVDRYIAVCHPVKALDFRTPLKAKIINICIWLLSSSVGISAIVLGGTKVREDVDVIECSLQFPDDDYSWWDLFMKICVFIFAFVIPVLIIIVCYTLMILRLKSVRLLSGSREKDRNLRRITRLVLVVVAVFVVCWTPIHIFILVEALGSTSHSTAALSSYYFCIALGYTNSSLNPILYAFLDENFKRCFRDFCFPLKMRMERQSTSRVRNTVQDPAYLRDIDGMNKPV

Assay [1] addresses Mu-type opioid receptor (Homo sapiens) (UniProt P35372). Briefly: Agonist activity at human cloned mu opioid receptor expressed in CHO cells assessed as stimulation of [35S]GTPgammaS binding at 1 nM relative to DAMGO.
The target in assay [2] is Delta-type opioid receptor (Homo sapiens) (UniProt P41143). Nature of the assay: Agonist activity at human cloned delta opioid receptor expressed in CHO cells assessed as stimulation of [35S]GTPgammaS binding at 1 nM relative to DPDPE.
In assay [3] the target is Kappa-type opioid receptor (Homo sapiens) (UniProt P41145). Briefly: Agonist activity at human cloned kappa opioid receptor expressed in HEK293 cells assessed as stimulation of [35S]GTPgammaS binding at 1 nM relative to U69593. On the technique in general: GTPγS resists hydrolysis and so accumulates on activated G proteins.

Turning to `CC(C)(C)[C@@](C)(O)[C@H]1C[C@@]23CC[C@]1(OCCF)[C@@H]1Oc4c(O)ccc5c4[C@@]12CCN(CC1CC1)[C@@H]3C5`, the Activity came out at 55% in assay [1], 9% in assay [2] and 43% in assay [3].

As for `CN1CC[C@]23c4c5ccc(O)c4O[C@H]2[C@]2(OCCF)C=C[C@@]3(C[C@@H]2[C@@](C)(O)CCc2ccccc2)[C@H]1C5`, the Activity in assay [2] was 92%; in assay [3], 95%.

As for `CC(C)(O)[C@H]1C[C@@]23CC[C@@]1(OCCF)[C@@H]1Oc4c(O)ccc5c4[C@@]12CCN(CC1CC1)[C@@H]3C5`, the Activity in assay [1] is 12%; in assay [2], 22%; in assay [3] it was 70%.
